Reference: ChEMBL document CHEMBL6103615, “Thymidylate Kinase-Targeted Antimicrobial Peptides via Phage Display: A Novel Strategy against Gram-Negative Bacteria” (J Med Chem, 2025)
In brackets after ≈: the same amount, converted by molar mass.

Columns and labels:
[1] = system: Escherichia coli; test: Antibacterial activity against Escherichia coli 078 incubated for 12 to 18 hrs by microbroth dilution method; format: functional; conditions: time 12-18 hrs
[2] = system: Escherichia coli; test: Antibacterial activity against Escherichia coli K88 incubated for 12 to 18 hrs by microbroth dilution method; format: functional; conditions: time 12-18 hrs
[3] = system: Staphylococcus aureus; test: Antibacterial activity against Staphylococcus aureus 25923 incubated for 12 to 18 hrs by microbroth dilution method; format: functional; conditions: time 12-18 hrs
[4] = system: Staphylococcus aureus; test: Antibacterial activity against methicillin-resistant Staphylococcus aureus 43300 incubated for 12 to 18 hrs by microbroth dilution method; format: functional; conditions: time 12-18 hrs
[5] = system: Staphylococcus epidermidis; test: Antibacterial activity against Staphylococcus epidermidis 12228 incubated for 12 to 18 hrs by microbroth dilution method; format: functional; conditions: time 12-18 hrs
[6] = system: Staphylococcus aureus; test: Antibacterial activity against Staphylococcus aureus 29213 incubated for 12 to 18 hrs by microbroth dilution method; format: functional; conditions: time 12-18 hrs
[7] = system: Salmonella typhimurium; test: Antibacterial activity against Salmonella typhimurium 7731 incubated for 12 to 18 hrs by microbroth dilution method; format: functional, Salmonella enterica subsp. enterica serovar Typhimurium; conditions: Salmonella enterica, time 12-18 hrs
[8] = system: Pseudomonas aeruginosa; test: Antibacterial activity against Pseudomonas aeruginosa 27853 incubated for 12 to 18 hrs by microbroth dilution method; format: functional; conditions: time 12-18 hrs
[9] = system: Pseudomonas aeruginosa; test: Antibacterial activity against Pseudomonas aeruginosa PAO1 incubated for 12 to 18 hrs by microbroth dilution method; format: functional; conditions: time 12-18 hrs
[10] = system: Escherichia coli; test: Antibacterial activity against Escherichia coli K99 incubated for 12 to 18 hrs by microbroth dilution method; format: functional; conditions: time 12-18 hrs
[11] = system: Escherichia coli; test: Antibacterial activity against Escherichia coli 1515 incubated for 12 to 18 hrs by microbroth dilution method; format: functional; conditions: time 12-18 hrs

CC[C@H](C)[C@H](NC(=O)CN)C(=O)NCC(=O)N[C@@H](C)C(=O)N[C@H](C(=O)N[C@@H](CC(C)C)C(=O)N[C@@H](CCCCN)C(=O)N[C@H](C(=O)N[C@@H](CC(C)C)C(=O)N[C@H](C(=O)N[C@H](C(=O)NCC(=O)N[C@@H](CC(C)C)C(=O)N1CCC[C@H]1C(=O)N[C@@H](C)C(=O)N[C@@H](CC(C)C)C(=O)N[C@H](C(=O)N[C@@H](CO)C(=O)N[C@@H](Cc1c[nH]c2ccccc12)C(=O)N[C@H](C(=O)N[C@@H](CCCCN)C(=O)N[C@@H](CCCNC(=N)N)C(=O)N[C@@H](CCCCN)C(=O)N[C@@H](CCCNC(=N)N)C(=O)N[C@@H](CCC(N)=O)C(=O)N[C@@H](CCC(N)=O)C(N)=O)[C@@H](C)CC)[C@@H](C)CC)[C@@H](C)O)[C@@H](C)O)C(C)C)C(C)C [MELITTIN]
MIC [1]: 4 µM (≈ 11.4 µg/mL)
MIC [2]: 2 µM (≈ 5.69 µg/mL)
MIC [3]: 4 µM (≈ 11.4 µg/mL)
MIC [4]: 2 µM (≈ 5.69 µg/mL)
MIC [5]: 2 µM (≈ 5.69 µg/mL)
MIC [6]: 4 µM (≈ 11.4 µg/mL)
MIC [7]: 4 µM (≈ 11.4 µg/mL)
MIC [8]: 16 µM (≈ 45.5 µg/mL)
MIC [9]: 4 µM (≈ 11.4 µg/mL)
MIC [10]: 2 µM (≈ 5.69 µg/mL)
MIC [11]: 2 µM (≈ 5.69 µg/mL)
